Measurements reported in patent US20120135931A1 (priority 2009, published 2012).

Target: human plasma derived thrombin (human), P00734

B1: DV24 (peptide)
peptide: DVAEPKMHKTAPPFDFEAIPEEYL
modifications: not checked
  Ki: 0.306 nM
